Measured values reported in ChEMBL document CHEMBL5214957.

By UniProt entry, the sequences of proteins in these tests, tags left out. Where a name states a change or a piece, a line headed by the entry shows the natural chain unless it says otherwise.
UniProt Q12791: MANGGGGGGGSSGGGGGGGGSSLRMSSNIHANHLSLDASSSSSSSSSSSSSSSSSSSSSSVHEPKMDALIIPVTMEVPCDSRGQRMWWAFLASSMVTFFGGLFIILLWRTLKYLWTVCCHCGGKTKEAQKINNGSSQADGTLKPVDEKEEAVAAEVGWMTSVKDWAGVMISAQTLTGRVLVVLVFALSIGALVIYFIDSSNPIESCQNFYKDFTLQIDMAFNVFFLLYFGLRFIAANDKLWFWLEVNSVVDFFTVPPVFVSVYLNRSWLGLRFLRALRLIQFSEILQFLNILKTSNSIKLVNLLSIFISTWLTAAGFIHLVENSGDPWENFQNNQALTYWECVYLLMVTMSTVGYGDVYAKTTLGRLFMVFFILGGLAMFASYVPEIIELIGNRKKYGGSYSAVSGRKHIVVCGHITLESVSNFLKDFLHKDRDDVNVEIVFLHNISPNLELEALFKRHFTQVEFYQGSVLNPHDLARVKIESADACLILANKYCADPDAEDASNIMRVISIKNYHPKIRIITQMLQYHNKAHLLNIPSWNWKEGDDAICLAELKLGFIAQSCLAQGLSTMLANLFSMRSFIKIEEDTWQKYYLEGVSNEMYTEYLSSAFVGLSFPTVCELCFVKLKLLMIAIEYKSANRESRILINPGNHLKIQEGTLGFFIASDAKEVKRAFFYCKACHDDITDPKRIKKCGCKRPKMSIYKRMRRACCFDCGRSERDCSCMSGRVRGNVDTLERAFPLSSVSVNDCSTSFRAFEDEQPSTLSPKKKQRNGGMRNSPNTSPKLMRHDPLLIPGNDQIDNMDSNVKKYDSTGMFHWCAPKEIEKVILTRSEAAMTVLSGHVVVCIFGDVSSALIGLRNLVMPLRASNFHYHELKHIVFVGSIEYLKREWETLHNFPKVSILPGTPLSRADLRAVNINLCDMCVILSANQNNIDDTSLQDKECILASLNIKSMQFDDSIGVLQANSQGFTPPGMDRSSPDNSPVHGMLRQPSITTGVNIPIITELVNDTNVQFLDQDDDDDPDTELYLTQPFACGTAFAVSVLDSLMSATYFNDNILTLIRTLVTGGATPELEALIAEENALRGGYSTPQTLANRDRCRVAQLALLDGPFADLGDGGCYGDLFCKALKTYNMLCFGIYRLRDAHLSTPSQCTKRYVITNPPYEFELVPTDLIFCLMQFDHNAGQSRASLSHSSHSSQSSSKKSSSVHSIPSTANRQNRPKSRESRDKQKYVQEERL

Legend:
[1] = biological target: Calcium-activated potassium channel subunit alpha-1 (Homo sapiens, UniProt Q12791); assay: Inhibition of Maxi-K (unknown origin) expressed in HEK293 cells at 30 uM measured by thallium flux assay relative to control; assay type: cell-based
[2] = biological target: T1, Potassium channel subfamily T member 2 (Homo sapiens) (UniProt Q6UVM3); assay: Inhibition of Slick (unknown origin) expressed in HEK293 cells at 30 uM measured by thallium flux assay relative to control; assay type: cell-based
T1 sequence (whole entry): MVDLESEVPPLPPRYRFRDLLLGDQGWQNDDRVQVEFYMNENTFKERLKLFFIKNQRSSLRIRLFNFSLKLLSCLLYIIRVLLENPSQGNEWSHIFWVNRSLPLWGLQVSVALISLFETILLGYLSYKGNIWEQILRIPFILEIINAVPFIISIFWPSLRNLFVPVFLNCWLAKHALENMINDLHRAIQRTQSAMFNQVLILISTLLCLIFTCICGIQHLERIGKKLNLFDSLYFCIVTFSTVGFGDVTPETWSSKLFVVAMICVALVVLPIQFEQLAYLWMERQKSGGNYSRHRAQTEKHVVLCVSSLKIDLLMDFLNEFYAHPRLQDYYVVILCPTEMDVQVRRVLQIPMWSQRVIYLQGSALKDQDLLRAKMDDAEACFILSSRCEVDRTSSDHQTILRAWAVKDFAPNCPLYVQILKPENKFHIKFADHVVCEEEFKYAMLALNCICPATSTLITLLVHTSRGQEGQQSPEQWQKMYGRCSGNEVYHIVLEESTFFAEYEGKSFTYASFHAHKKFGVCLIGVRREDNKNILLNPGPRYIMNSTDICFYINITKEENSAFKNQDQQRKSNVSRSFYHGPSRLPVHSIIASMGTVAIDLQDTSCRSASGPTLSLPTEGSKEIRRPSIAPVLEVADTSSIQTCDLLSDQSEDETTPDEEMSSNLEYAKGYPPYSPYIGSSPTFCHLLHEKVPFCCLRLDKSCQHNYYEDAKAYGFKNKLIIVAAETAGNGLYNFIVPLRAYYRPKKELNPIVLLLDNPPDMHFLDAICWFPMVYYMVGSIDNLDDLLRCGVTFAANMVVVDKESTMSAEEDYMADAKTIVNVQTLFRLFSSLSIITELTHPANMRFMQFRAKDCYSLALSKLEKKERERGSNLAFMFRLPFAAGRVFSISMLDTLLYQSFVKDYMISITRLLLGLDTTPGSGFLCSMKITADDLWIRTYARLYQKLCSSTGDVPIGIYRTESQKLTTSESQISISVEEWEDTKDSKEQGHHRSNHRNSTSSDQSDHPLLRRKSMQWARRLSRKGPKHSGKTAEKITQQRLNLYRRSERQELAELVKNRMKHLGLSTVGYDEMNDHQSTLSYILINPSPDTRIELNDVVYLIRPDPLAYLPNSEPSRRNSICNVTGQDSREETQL

| SMILES | Efficacy [1] | Efficacy [2] |
| --- | --- | --- |
| COc1ccc(C(F)(F)F)cc1NC(=O)CN1CCN(S(=O)(=O)N2CCC(C)CC2)CC1 | 36% | 29% |
| COc1ccc(Cl)cc1NC(=O)[C@H](C)N1CCN(S(=O)(=O)N2CCC(C(F)(F)F)CC2)CC1 | – | 34% |
